These results are taken from publication PMC6222802 (Molecules : A Journal of Synthetic Chemistry and Natural …, 2018).

Experiment [1] concerns L929 cells. Kind of experiment: MTT assay, non-cancerous L929 cells. The conditions noted are these: read-out: IC50, L929, 48 h, normal cell. (Tetrazolium assays rely on reduction of a dye to a coloured formazan, in cell work by metabolically active cells.)
Experiment [2] deals with H22 cells. Kind of experiment: MTT anti-proliferation assay, H22 cells. The conditions noted are these: read-out: IC50, H22, 48 h.
Experiment [3] has as its system S180 cells. Kind of experiment: MTT anti-proliferation assay, S180 cells. Particulars: read-out: IC50, S180, 48 h.
Experiment [4] has as its system K562 cells. Kind of experiment: MTT anti-proliferation assay, K562 cells. The conditions noted are these: read-out: IC50, K562, 48 h.
Experiment [5] relates to LoVo cells. The experiment can be described thus: MTT anti-proliferation assay, LoVo cells. The conditions noted are these: read-out: IC50, LoVo, 48 h.
In experiment [6] the test system is MCF-7 cells. Kind of experiment: MTT anti-proliferation assay, MCF-7 cells. The conditions noted are these: read-out: IC50, MCF-7, 48 h.
For experiment [7], the system named is SMMC-7721 cells. The experiment can be described thus: MTT anti-proliferation assay, SMMC-7721 cells. Particulars: read-out: IC50, SMMC-7721, 48 h.

Structures are written as SMILES. Only a part of the results on these compounds is given; other tests are left out.

On to `O=P(Cl)(Cl)N(CCCl)CCCl`, for which the IC50 (as a rule, the concentration at which inhibition is half-maximal) in experiment [1] was 52.8 µM; in experiment [2], 11.7 µM; in experiment [3], 12.1 µM; in experiment [4], 48.8 µM; in experiment [5], 84 µM; in experiment [6], 111 µM. For the same compound, the IC50 in experiment [7] turned out to be 48.8 µM.
